Earlier results as cited in patent US11000488B2 (priority 2019, dated 2021).

The chains behind the UniProt entries cited, without tags or fusion partners.
UniProt P35372, whole entry, species assumed: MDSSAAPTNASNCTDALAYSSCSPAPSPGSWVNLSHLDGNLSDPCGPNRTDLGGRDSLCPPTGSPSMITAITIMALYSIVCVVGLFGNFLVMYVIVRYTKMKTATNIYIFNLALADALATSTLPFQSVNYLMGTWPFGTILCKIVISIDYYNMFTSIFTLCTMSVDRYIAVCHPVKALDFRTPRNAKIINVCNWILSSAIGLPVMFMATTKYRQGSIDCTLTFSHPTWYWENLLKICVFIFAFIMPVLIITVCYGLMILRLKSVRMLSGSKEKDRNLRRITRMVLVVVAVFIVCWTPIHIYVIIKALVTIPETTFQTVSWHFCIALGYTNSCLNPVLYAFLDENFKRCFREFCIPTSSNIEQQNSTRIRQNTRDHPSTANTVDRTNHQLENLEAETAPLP

Target: μ-opioid receptor (Homo sapiens, UniProt P35372)
Conditions: in vitro; read-out: μ-opioid receptor binding affinity (Ki); cited from earlier work

| SMILES | Ki |
| --- | --- |
| CN(C)CC1CCCCC1(O)c1cccc(O)c1 (single isomer, unassigned; (-)) [(−)-M1] | 240 nM |
| CN(C)C[C@H]1CCCC[C@]1(O)c1cccc(O)c1 [(+)-M1, (1R,2R)-O-desmethyltramadol] | 3.4 nM |
